US20130287807A1, “COMPOUNDS FOR TREATING SYMPTOMS ASSOCIATED WITH PARKINSON'S DISEASE” (priority 2008, published 2013)

Assays:
[1] = tested on: monoclonal antibody (DAEFRH-peptide-specific); assay: Inhibition assay (ELISA): mimotope peptides compete with plate-bound original epitope DAEFRH for recognition by the monoclonal antibody; format: binding, Mice
From the text: Mice are vaccinated with the 6mer peptide DAEFRH (natural N-terminal Aβ42 sequence) linked to the protein bovine serum albumin BSA (to make use of the hapten-carrier-effect), emulsified in CFA (first injection) and IFA (booster injections). DAEFRH-peptide-specific, antibody-producing hybridomas are detected by ELISA (DAEFRH-peptide-coated ELISA plates).
FIGS. 2 and 3 describe the results of inhibition assays performed with mimotope peptides included in and obtained from the 5 libraries (as described in WO 2004/062556). The mimotope peptides compete with the original epitope for recognition by the monoclonal antibody. Original epitope and mimotope peptides contain an additional C at the C-terminus for coupling to a protein carrier (if desired).
After blocking with PBS/BSA 1% (200 μl/well, 12 h, 4° C.), the plates are washed 3× times with PBS/Tween. Then, biotinylated monoclonal antibody (1:2000, 50 μl/well) and peptides (50 μl/well) at 50, 5, 0.5, 0.05, 0.005, and 0.0005 μg/ml are added for 20 min. at 37° C. The plates are washed 3× times with PBS/Tween and are incubated with horseradish peroxidase (HRP)-labeled streptavidin (100 μl/well, 30 min, RT). The plates are washed 5× times with PBS/Tween and are incubated with ABTS+H2O2(0.1% w/v, 10 to 45 min) and the reaction is stopped with citric acid followed by photometric evaluation (wavelength 405 nm). […]

[2] = tested on: full length Aβ and/or fragments thereof; assay: Immune response elicited by using AD mimotopes: detection of Aβ; format: in vivo; design: key: +: All peptides listed in table 1 mount specific immune reactions against full length Aβ and/or fragments thereof
From the text: In the following Table further examples of the immune response elicited by using AD mimotopes are described. All peptides listed in table 1 mount specific immune reactions against full length Aβ and/or fragments thereof.

inhibition of binding of the monoclonal antibody to the original epitope ([1]; competition ELISA, plate-bound DAEFRH-C-BSA, text to FIGS. 2-9): block epitope recognition
SMILES: CC(C)C[C@H](NC(=O)[C@H](CCC(=O)O)NC(=O)[C@H](CCCCN)NC(=O)[C@@H](N)CC(=O)O)C(=O)N[C@@H](CCCNC(=N)N)C(=O)N[C@@H](CS)C(=O)O [Peptide 1238, DKELR]
Inhibitory capacity of mimotopes ([1]; summary Tables 1 and 2 (Examples 2, 3)): strong
Detection of Aβ [2]: +
